# In patent US20040242503A1, “Compositions comprising blockers of l-dopa renal cell transfer for the treatment of parkinson's disease” (priority 2000, published 2004):
# Columns and labels:
# [1] = system: LLC-PK1 cells; test: Apical uptake of L-DOPA in LLC-PK1 cells; format: cell-based, porcine; settings: 6 min incubation, medium concentration 0.5 μM
# Method: Cell culture LLC-PK1 cells, a porcine-derived proximal renal tubule epithelial cell line which retains several properties of proximal tubular epithelial cells in culture (Hull, R. N., et al., 1976, In Vitro 12; 670-677), were obtained from the American Type Culture Collection (Rockville, Md.). LLC-PK1 cells (ATCC CRL 1392; passages 198-206) and were maintained in a humidified atmosphere of 5% CO2-95% air at 37° C. and grown in Medium 199 (Sigma Chemical Company, St. Louis, Mo., USA) supplemented with 100 U/ml penicillin G, 0.25 μg/ml amphotericin B, 100 μg/ml streptomycin (Sigma), 3% foetal bovine serum (Sigma) and 25 mM N-2-hydroxyethylpiperazine-N'-2-ethanesulfonic acid (HEPES; Sigma). For subculturing, the cells were dissociated with 0.05% trypsin-EDTA, split 1:4 and subcultured in Costar flasks with 75- or 162-cm^2 growth areas (Costar, Badhoevedorp, The Netherlands). […] The cell medium was changed every 2 days, and the cells reached confluence after 3-5 days of incubation. For 24 hours prior to each experiment, the cell medium was free of foetal bovine serum. […] Km and Vmax values for the uptake of L-DOPA, as determined in saturation experiments, were calculated from non-linear regression analysis using the GraphPad Prism statistics software package ([…]. Neubig. GraphPad Prism (version 1.0). San Diego, USA: GraphPad Prism Software Inc., 1994).
# [2] = Levels of L-DOPA, dopamine, DOPAC and HVA in rat brain and kidney; format: in vivo
# Method: Male Wistar rats weighing 170-280 g, kept two per cage under controlled environmental conditions (12 h light/dark cycle and room temperature 24° C.), were used in all experiments. […] The high pressure liquid chromatograph system consisted of a pump (Gilson model 302; Gilson Medical Electronics, […] Bel, France) connected to a manometric module (Gilson model 802 C) and a stainless-steel 5 μm ODS column (Biophase; Bioanalytical Systems, West Lafayette, Ind.) of 25 cm length; samples were injected by means of an automatic sample injector (Gilson model 231) connected to a Gilson dilutor (model 401). […] The detection was carried out electrochemically with a glassy carbon electrode, an Ag/AgCl reference electrode and an amperometric detector (Gilson model 141); the detector cell was operated at 0.75 V. The current produced was monitored using the Gilson 712 HPLC software.
# [3] = kidney, L-DOPA 12 mg/kg alone, 60 min
SMILES,cell concentration of L-DOPA relative to medium concentration [1] [times],"DOPAC level [2, 3] [ng/g]","HVA level [2, 3] [ng/g]","L-DOPA level [2, 3] [ng/g]","DA level ([2]; brain, R 1.0 mg/kg 30 min before L 12 mg/kg + B 3 mg/kg, 60 min after L + B) [ng/g]"
"N[C@@H](Cc1ccc(O)c(O)c1)C(=O)O [L-DOPA, L-3,4-dihydroxyphenylalanine]",8.0±0.8,84.3 ± 23.3,10235.5 ± 3772.9,17.4 ± 2.1,
Oc1ccc(C=Cc2cc(O)cc(O)c2)cc1 [resveratrol],,,,,221.9 ± 41.5
